Reference: ChEMBL document CHEMBL4041516, “SAR study of 5-alkynyl substituted quinazolin-4(3H)-ones as phosphoinositide 3-kinase delta (PI3Kδ) inhibitors” (Eur J Med Chem, 2017)

Experiments:
Homo sapiens [1] = species on record: Homo sapiens; assay: Selectivity ratio of IC50 for PI3Kgamma (unknown origin) to IC50 for PI3Kdelta (unknown origin)
Homo sapiens [2] = species on record: Homo sapiens; assay: Selectivity ratio of IC50 for PI3Kbeta (unknown origin) to IC50 for PI3Kdelta (unknown origin)
Homo sapiens [3] = species on record: Homo sapiens; assay: Selectivity ratio of IC50 for PI3Kalpha (unknown origin) to IC50 for PI3Kdelta (unknown origin)

SMILES: CC[C@H](Nc1nc(N)nc(N)c1C#N)c1nc2cccc(C#CCCCC(=O)N3CCOCC3)c2c(=O)n1-c1ccccc1
- Ratio IC50 (Homo sapiens [1]): 24
- Ratio IC50 (Homo sapiens [2]): 133
- Ratio IC50 (Homo sapiens [3]): 154
